Data set [1] in a line: in vivo. As to conditions: rabbit.
The nature of data set [2]: in vivo. As to conditions: rat.
Data set [3] is described as follows: in vivo. As to conditions: mouse, sc.
Another data set has as its system rats. Conditions: rat, in vivo, po.

Structures are written as SMILES. Structures can show the parent of a compound that is named as a salt.

As usually defined, the LD50 is the dose at which mortality reaches 50%. Lower therefore signals a more toxic substance.

Turning to `c1ccc([C@H]2CN3CCSC3=N2)cc1` [levamizole, L-(-)-2,3,5,6-tetrahydro-6-phenylimidazo-[2,1-b]-thiazole hydrochloride, reference compound], the LD50 stood at 267 mg/kg in the data set “in vivo [1]” (po); 38.4 mg/kg in “in vivo [1]” (sc); 533 mg/kg in the data set “in vivo [2]” (po, LD50 upon peroral administration); 117 mg/kg in the data set “in vivo [2]” (sc, LD50 upon subcutaneous injection, rats, female); 137 mg/kg in the data set “in vivo [2]” (sc, LD50 upon subcutaneous injection, rats, male); 121 mg/kg in “in vivo [3]”. Besides, in the data set with rats, the “LD50 upon peroral administration” value is 400.0 mg/kg.

Source of the values: US4550170A, “6-Phenyl-2,3,5,6-tetrahydroimidazo-[2,1-b]-thiazole derivatives” (Institut Organicheskoi Khimii Akademii Nauk Ukrainskoi SSR, priority 1984, dated 1985).
